Results as given in EP4578862A1.
Read-outs that look alike come from different tables or passages of the source.

The chains behind the UniProt entries cited, without tags or fusion partners.
UniProt O14744, whole entry: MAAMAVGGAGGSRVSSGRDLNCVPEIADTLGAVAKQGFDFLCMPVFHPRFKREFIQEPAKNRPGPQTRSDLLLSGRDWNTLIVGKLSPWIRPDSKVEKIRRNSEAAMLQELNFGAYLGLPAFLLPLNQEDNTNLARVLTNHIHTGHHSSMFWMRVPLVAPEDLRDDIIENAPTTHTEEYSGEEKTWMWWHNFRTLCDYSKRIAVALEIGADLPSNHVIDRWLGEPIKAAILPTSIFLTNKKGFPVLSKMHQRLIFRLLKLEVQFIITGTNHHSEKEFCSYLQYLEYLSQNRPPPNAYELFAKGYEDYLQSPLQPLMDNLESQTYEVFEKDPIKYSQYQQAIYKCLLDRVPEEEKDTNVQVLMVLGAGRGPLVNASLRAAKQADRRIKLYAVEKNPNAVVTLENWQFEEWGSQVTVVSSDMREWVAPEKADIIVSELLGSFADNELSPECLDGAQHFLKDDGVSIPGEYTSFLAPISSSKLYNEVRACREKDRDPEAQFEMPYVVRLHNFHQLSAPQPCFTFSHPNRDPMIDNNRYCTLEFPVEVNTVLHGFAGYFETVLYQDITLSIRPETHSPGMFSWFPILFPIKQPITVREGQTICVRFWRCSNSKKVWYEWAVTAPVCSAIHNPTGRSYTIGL
UniProt Q9BQA1, whole entry partner: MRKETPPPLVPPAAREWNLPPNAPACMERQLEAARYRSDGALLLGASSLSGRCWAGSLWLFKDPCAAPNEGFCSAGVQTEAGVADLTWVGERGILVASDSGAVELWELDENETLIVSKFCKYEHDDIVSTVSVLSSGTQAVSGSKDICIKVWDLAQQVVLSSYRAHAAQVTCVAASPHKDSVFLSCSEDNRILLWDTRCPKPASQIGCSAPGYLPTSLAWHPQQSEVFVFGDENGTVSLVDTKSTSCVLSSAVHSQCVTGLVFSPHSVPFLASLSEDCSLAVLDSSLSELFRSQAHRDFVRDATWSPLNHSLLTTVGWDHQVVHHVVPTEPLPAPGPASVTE

Assays:
LU99 cells = assay: LU99 cell proliferation inhibition assay (CellTiter-Glo); conditions: read-out: Antiproliferative activity IC50 (nM) in LU99 cell, incubated for 6 days, 10 µM to 0.128 nM, tested form: free base
PRMT5·MTA = PRMT5·MTA (Homo sapiens, UniProt O14744); assay: PRMT5·MTA enzyme inhibitory activity assay (LANCE Ultra TR-FRET); conditions: read-out: PRMT5-MTA inhibitory activity IC50, buffer with MTA 2.6 µM, SAM 1.3 µM, tested form: free base
HCT116 WT = assay: In vitro detection of SDMA levels in HCT116 WT cells
HCT116 MTAP KO = assay: In vitro detection of SDMA levels in HCT116 MTAP KO cells
[1] = Plasma protein binding rate assay (equilibrium dialysis), mouse plasma; conditions: M (mouse) plasma, 2 µM, 4 hours dialysis, tested form: free base
[2] = Plasma protein binding rate assay (equilibrium dialysis), rat plasma; conditions: R (rat) plasma, 2 µM, 4 hours dialysis, tested form: free base
[3] = Plasma protein binding rate assay (equilibrium dialysis), dog plasma; conditions: D (dog) plasma, 2 µM, 4 hours dialysis, tested form: free base
[4] = Plasma protein binding rate assay (equilibrium dialysis), human plasma; conditions: H (human) plasma, 2 µM, 4 hours dialysis, tested form: free base
[5] = test system: MDCKII-MDR1 monolayer cell; assay: In vitro MDCKII-MDR1 monolayer cell permeability test; conditions: 50 µM, 150 minutes, pH 7.40, tested form: free base
[6] = Pharmacokinetic evaluation in mice (plasma, IV and PO); conditions: tested form: free base
[7] = test system: human large cell lung cancer LU99; assay: Antitumor activity test in BALB/c nude mouse subcutaneous xenograft tumor model of LU99; conditions: day 19, tested form: free base
[8] = read-out: SDMA IC50, cultured for 4 days, tested form: free base, single enantiomer separated b
[9] = IV, 1 mg/kg, single enantiomer separated b
[10] = read-out: SDMA IC50, cultured for 4 days, tested form: free base, single stereoisomer (one of 3)

C#Cc1ccc2c(c1)OCC2N(C)C(=O)c1cc2c(cc1F)nc(N)c1cnn(C)c12 (centres unmarked)
IC50 (LU99 cells; single enantiomer separated b): 2.9 nM | IC50 (PRMT5·MTA; single enantiomer separated b): 1.8 nM | IC50 (HCT116 WT; [8]): 53.1 nM | IC50 (HCT116 MTAP KO; [8]): 0.2 nM | PPB_unbound ([1]; single enantiomer separated b): 0.6% | PPB_unbound ([2]; single enantiomer separated b): 0.5% | PPB_unbound ([3]; single enantiomer separated b): 1.5% | PPB_unbound ([4]; single enantiomer separated b): 1.4% | Apparent permeability coefficient (A to B) ([5]; single enantiomer separated b): 6.38 10^-6 cm/s | Tlast [6, 9]: 8 h | Tlast ([6]; PO, 2 mg/kg, single enantiomer separated b): 24 h | TGI ([7]; Dosing regimen 1, 7.5 mpk p.o. QD, single enantiomer separated b): 87% | TGI ([7]; Dosing regimen 1, 15 mpk p.o. QD, single enantiomer separated b): 100%

C#Cc1ccc2c(n1)COCC2N(C)C(=O)c1cc2c(cc1F)nc(N)c1cnn(C)c12 (centres unmarked)
IC50 (LU99 cells; single enantiomer separated b): 3.1 nM | IC50 (PRMT5·MTA; single enantiomer separated b): 2.2 nM | IC50 (HCT116 WT; [8]): 44 nM | IC50 (HCT116 MTAP KO; [8]): 0.1 nM | PPB_unbound ([1]; single enantiomer separated b): 10.3% | PPB_unbound ([3]; single enantiomer separated b): 17.2% | PPB_unbound ([4]; single enantiomer separated b): 7.7% | Apparent permeability coefficient (A to B) ([5]; single enantiomer separated b): 8.15 10^-6 cm/s | Tlast [6, 9]: 6 h | TGI ([7]; Dosing regimen 2, 5 mpk p.o. QD, single enantiomer separated b): 84% | TGI ([7]; Dosing regimen 2, 15 mpk p.o. QD, single enantiomer separated b): 89% | TGI ([7]; Dosing regimen 2, 50 mpk p.o. QD, single enantiomer separated b): 103%

C#Cc1ccc2c(n1)C(C)OCC2N(C)C(=O)c1cc2c(cc1F)nc(N)c1cnn(C)c12 (centres unmarked)
IC50 (LU99 cells; single stereoisomer (one of 3)): 1.9 nM | IC50 (PRMT5·MTA; single stereoisomer (one of 3)): 2.2 nM | IC50 (HCT116 WT; [10]): 10.7 nM | IC50 (HCT116 MTAP KO; [10]): 1.2 nM | PPB_unbound ([1]; single stereoisomer (one of 3)): 3.4% | PPB_unbound ([2]; single stereoisomer (one of 3)): 6.9% | PPB_unbound ([3]; single stereoisomer (one of 3)): 4.3% | PPB_unbound ([4]; single stereoisomer (one of 3)): 5.8% | Apparent permeability coefficient (A to B) ([5]; single stereoisomer (one of 3)): 9.39 10^-6 cm/s | Tlast ([6]; IV, 1 mg/kg, single stereoisomer (one of 3)): 8 h | TGI ([7]; Dosing regimen 2, 5 mpk p.o. QD, single stereoisomer (one of 3)): 68% | TGI ([7]; Dosing regimen 2, 15 mpk p.o. QD, single stereoisomer (one of 3)): 93% | TGI ([7]; Dosing regimen 2, 50 mpk p.o. QD, single stereoisomer (one of 3)): 102%
